The target of the experiment is T1, D-2 receptors (Rattus norvegicus, UniProt P61169).
T1 construct: The corpora striata are dissected out and homogenized; from tissue; host or cells: rat corpus striatum membranes
In words: 3H-spiroperidol binding to rat striatal membranes (D-2 receptors).

Chains of the proteins cited; added tags and fusions are not shown.
UniProt P61169, whole entry: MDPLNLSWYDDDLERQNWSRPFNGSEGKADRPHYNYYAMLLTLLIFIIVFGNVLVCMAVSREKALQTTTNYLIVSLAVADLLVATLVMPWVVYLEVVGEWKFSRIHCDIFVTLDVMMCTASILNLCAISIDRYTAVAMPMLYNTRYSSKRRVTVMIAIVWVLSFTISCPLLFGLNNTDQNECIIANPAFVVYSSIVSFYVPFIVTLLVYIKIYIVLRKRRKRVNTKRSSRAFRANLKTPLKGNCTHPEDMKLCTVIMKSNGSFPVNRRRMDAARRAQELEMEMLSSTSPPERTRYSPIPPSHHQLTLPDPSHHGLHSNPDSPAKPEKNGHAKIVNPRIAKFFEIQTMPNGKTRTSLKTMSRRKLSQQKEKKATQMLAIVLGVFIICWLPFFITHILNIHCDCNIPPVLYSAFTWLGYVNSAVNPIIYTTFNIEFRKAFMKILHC

SMILES strings stand for the structures.

Our source for the IC50 values is patent US4525360A, “Anti-psychotic phenylindene derivatives and acid addition salts thereof” (Kefalas A/S, priority 1982, dated 1985).

For `OCCN1CCN(CC/C=C2/c3ccccc3Sc3ccc(C(F)(F)F)cc32)CC1` [Cis(Z)-flupentixol, reference compound], the IC50 (usually the concentration that gives 50% inhibition) came to 3.2 nM.
